Results from article PMC4657098, “A Review of the Updated Pharmacophore for the Alpha 5 GABA(A) Benzodiazepine Receptor Model” (International Journal of Medicinal Chemistry, 2015).
pKi: −log10 of the molar value. Read-outs that look alike come from different tables or passages of the source.

Columns and labels:
α3β3γ2 GABAA/BzR = α3β3γ2 GABAA/BzR (Homo sapiens, UniProt P18507+P34903); assay: Competition binding to HEK cell membranes, α3β3γ2
α2β3γ2 GABAA/BzR = α2β3γ2 GABAA/BzR (Homo sapiens, UniProt P18507+P47869); assay: Competition binding to HEK cell membranes, α2β3γ2
α6β3γ2 GABAA/BzR = α6β3γ2 GABAA/BzR (Homo sapiens, UniProt P18507+Q16445); assay: Competition binding to HEK cell membranes, α6β3γ2; conditions: read-out: Ki α6
α5β3γ2 GABAA/BzR = α5β3γ2 GABAA/BzR (Homo sapiens, UniProt P18507+P31644); assay: Competition binding to HEK cell membranes, α5β3γ2
α1β3γ2 GABAA/BzR = α1β3γ2 GABAA/BzR (Homo sapiens, UniProt P14867+P18507); assay: Competition binding to HEK cell membranes, α1β3γ2; conditions: Ki α1

Compound | pKi (α3β3γ2 GABAA/BzR; read-out: Ki α3) | pKi (α2β3γ2 GABAA/BzR; read-out: Ki α2) | pKi (α6β3γ2 GABAA/BzR) | pKi (α5β3γ2 GABAA/BzR; read-out: Ki α5) | pKi (α3β3γ2 GABAA/BzR; Ki α3) | pKi (α2β3γ2 GABAA/BzR; Ki α2) | pKi (α1β3γ2 GABAA/BzR) | pKi (α5β3γ2 GABAA/BzR; Ki α5)
CCOC(=O)c1cc2c(cn1)[nH]c1ccccc12 [BCCE, reference compound] | 8.24 | 8.31 | 5.57 | 7.57 |  |  |  | 
C#Cc1ccc2c(c1)C(c1ccccc1F)=N[C@@H](C)c1c(C(=O)OCC)ncn1-2 |  |  |  |  | 5.91 | 6.85 | 6.46 | 7.80
